Measured affinities in a library of Ab-14 light chain variants

Values reported by Li et al. 2023, doi:10.1038/s41467-023-39022-2 (FLAb copy).

All variants were tested on one target, the spike HR2 peptide PDVDLGDISGINAS (SARS-CoV-2).

Parent scFv Ab-14: VH joined to VL by the linker GGGGSGGGGSGGGGS. Changes lie in the light chain CDRs alone.
VH: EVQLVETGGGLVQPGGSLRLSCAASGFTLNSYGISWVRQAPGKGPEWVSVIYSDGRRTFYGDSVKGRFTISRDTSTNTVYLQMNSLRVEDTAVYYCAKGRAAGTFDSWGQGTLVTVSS
VL: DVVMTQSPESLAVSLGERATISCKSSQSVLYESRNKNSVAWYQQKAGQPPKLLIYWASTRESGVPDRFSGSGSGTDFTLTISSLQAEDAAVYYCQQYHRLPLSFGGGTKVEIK

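Phage display of a naive human antibody library on the peptide gave the parent. These sequences belong to a second round, designed from the earlier measurements on random variants of the parent. Their group label is 14L_En_HC (En: ensemble of fine-tuned language models; HC: hill climbing; a sequence that several methods proposed may carry one label only). The scFvs were displayed on barcoded MATa yeast, the peptide on MATalpha yeast. Binding brings cells together so that they mate, and sequencing counts the barcode pairs among the diploids. Scores were corrected for input abundance and mapped to Kd with protein pairs of known affinity run in the same pool. Each pool was mated in six replicate cultures.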

The parent's light chain CDRs are KSSQSVLYESRNKNSVA, WASTRES, QQYHRLPLS; each variant's own CDRs replace them letter for letter. Values are log10 of the apparent Kd in nM; lower means stronger binding. A mean of the replicates is given; it leaves out those without a signal. Where no diploid with the target was found in that replicate, the entry reads "nd": below detection, most likely a poor binder, though not proof of it. In the paper, a design with two or fewer of six values counts as a poor binder. Of ten entries with the parent sequence, four were seen in most replicates (averages 0.34 to 2.37), three in one and three in none, so single entries are noisy. Nonspecific signal, from three strains lacking the peptide, appeared in 4% of pairings of all light chain designs, centred on 2.64 (5% of these signals below 1.59); values are not corrected for it. For each scFv, signals with the empty controls are counted beside the result, with their mean in brackets. Values of this round are not directly comparable with the first-round values of the same sequences.

| # | CDR-L1 | CDR-L2 | CDR-L3 | log10 Kd (nM) by replicate | mean, log10 nM | signal with controls |
|---|---|---|---|---|---|---|
| 1 | TLSELMDMTSRNVNSVA | DLTTRGN | QQYHRLPLS | 0.75 / 1.41 / 0.78 / 0.78 / 0.31 / 0.87 | 0.82 | 0/18 |
| 2 | KLSQLFYKESRKKNNVA | EMTTRGS | QQYDRLPLS | 1.42 / 1.33 / 1.11 / 1.32 / 0.94 / 1.22 | 1.22 | 2/18 (2.18) |
| 3 | SLMQYGGYESNAHNSIA | DLRTRES | QQYHRLPLS | 0.27 / 0.20 / -0.13 / 0.07 / -0.14 / 0.38 | 0.11 | 0/18 |
| 4 | HISQMVMYGSCNKNNVA | QVQLREE | QQYHRLPLS | 0.74 / 0.76 / 0.87 / 0.49 / 1.17 / 0.76 | 0.80 | 0/18 |
| 5 | KLRLMTLTEGYFKNSVA | QASTREN | QSYHRLPLS | 0.75 / 1.28 / 0.84 / 0.75 / 0.58 / 0.56 | 0.79 | 0/18 |
| 6 | HISMSMNYLTRNKNSIA | EESTRED | QQYHRLPLS | 0.07 / 0.01 / -0.06 / -0.32 / -0.10 / -0.06 | -0.08 | 1/18 (2.11) |
| 7 | TIANSMLYLSNLKNSIA | QAETRED | QQYHRLPIS | 0.47 / 0.48 / 0.63 / 0.73 / 0.38 / 0.92 | 0.60 | 0/18 |
| 8 | KLGTTVGYEQRNKSRVA | DNSTRES | QQYDRLPLS | 2.39 / 2.96 / 2.58 / 3.95 / 1.97 / 3.41 | 2.88 | 1/18 (2.50) |
| 9 | TISQMLLMQTSHKNSVA | GEETRYN | QQYHRLPLS | 0.13 / 0.41 / -0.03 / 0.29 / 0.50 / -0.06 | 0.21 | 1/18 (1.43) |
| 10 | MISDTGLHDSRMQNSVA | NNSTREA | QQYHRLPLS | 1.95 / 2.28 / 2.39 / 2.24 / 2.08 / 1.90 | 2.14 | 1/18 (1.67) |
| 11 | KISMTYRYESQEKNSIA | EMTTREE | QSYHRLPLS | 1.95 / 1.38 / 1.82 / 0.94 / 1.45 / 1.90 | 1.58 | 1/18 (3.27) |
| 12 | MITAGLRGVGRNKNSVA | NAQTREA | QHYHRLPLS | 2.90 / 2.25 / 2.27 / 3.03 / 2.05 / 2.85 | 2.56 | 1/18 (2.71) |
| 13 | MISDLTMYGSRNKNSVA | DLSERGS | QQYHRLPLS | -0.25 / -0.44 / -0.41 / -0.24 / -0.40 / -0.15 | -0.32 | 0/18 |
| 14 | SLAESMHMESRNKNSVA | DNSTRES | QHYHRLPLS | nd / nd / nd / nd / nd / nd | nd | 3/18 (3.04) |
| 15 | IITQSVMAESRNKSNVA | NTSEREP | QQYDRLPLI | 0.91 / 1.18 / 1.36 / 1.23 / 0.95 / 1.11 | 1.12 | 0/18 |
| 16 | QLSGPMLSESKKKNNVA | EFSTRGS | QQYHRLPLS | nd / nd / nd / 1.09 / nd / nd | 1.09 | 0/18 |
| 17 | KLSQVTEYEMHNKNNVA | DLTTRGS | QDYHRLPLS | 0.03 / 0.15 / -0.04 / 0.05 / -0.10 / 0.20 | 0.05 | 1/18 (1.98) |
| 18 | MISQMFEGLSTKKNPVA | QVSTREE | QQYHRLPLS | nd / nd / nd / nd / nd / nd | nd | 0/18 |
| 19 | KLSQVTHSEHVNKNSIA | EMVTREK | QQYDRLPLS | 1.18 / 0.99 / 0.76 / 0.94 / 1.10 / 1.37 | 1.06 | 0/18 |
| 20 | KLSISYLFQSQEKNSIA | ENSTREK | QHYHRLPLS | nd / 2.65 / nd / nd / nd / nd | 2.65 | 0/18 |
| 21 | KLSMSVRMESFNKNSVA | ENSTREA | QDYHRLPLS | 1.59 / 2.00 / 1.84 / nd / 2.50 / 1.68 | 1.92 | 1/18 (1.80) |
| 22 | MISQMFEGLSTSKNPVA | QVSTRLE | QQYHRLPLS | nd / nd / nd / nd / 1.58 / nd | 1.58 | 0/18 |
| 23 | KLSQLFYKESRKKNNVA | EMTTRMS | QQYDRLPLS | 0.45 / 0.30 / 0.19 / 0.12 / 0.39 / 0.21 | 0.28 | 3/18 (4.19) |
| 24 | HITYSMQHLSKNKNSVA | NQQTRES | QQYHRLPLS | 0.74 / 0.74 / 0.42 / 1.07 / 0.51 / 0.79 | 0.71 | 0/18 |
| 25 | TLMQVGGYEMNAHNSIA | DLRTREN | QQYHRLPLA | nd / 0.46 / 1.17 / 0.40 / 0.92 / 0.54 | 0.70 | 1/18 (1.65) |
| 26 | KISSLTMYESVNKNNIA | EMTTRPS | QSYHRLPLS | 0.66 / 0.03 / 0.08 / 0.25 / 0.19 / 0.49 | 0.28 | 0/18 |
| 27 | KLLQNVMTEGRNRNNVA | HMTMRED | QQYWRLPLS | 0.57 / 0.40 / 0.21 / 0.22 / 0.45 / 0.30 | 0.36 | 3/18 (3.14) |
| 28 | KLPLATMQESVSKNSVA | ELSTRGS | QQYHRLPLS | 0.20 / 0.35 / 0.14 / 0.33 / 0.18 / 0.27 | 0.25 | 2/18 (2.74) |
| 29 | TIGQVMHYDSRNKNSVA | QTSTREE | QDYHRLPLS | 0.65 / 0.23 / 0.49 / 0.40 / 0.28 / 0.37 | 0.40 | 2/18 (2.94) |
| 30 | TISQMFLGEYRNRNSVA | QASTRES | QSYDRLPLS | -0.02 / -0.14 / -0.26 / -0.45 / -0.47 / 0.01 | -0.22 | 1/18 (2.73) |
| 31 | ALGDVTRMESNKKSSIA | DMSNRAD | QQYHRLPLS | 0.13 / 0.08 / 0.13 / 0.07 / 0.03 / 0.30 | 0.12 | 0/18 |
| 32 | MLLQSTMYGERNRNNVA | HASTRED | QQYHRLPLI | 1.99 / 0.37 / 0.70 / 1.57 / 0.92 / 1.29 | 1.14 | 1/18 (1.59) |
| 33 | TISQMYFIESKNRNNVA | EMTTREN | QDYDRLPLS | nd / nd / nd / nd / nd / nd | nd | 0/18 |
| 34 | NVSQMVLTGQTLRNSVA | HASTRFN | QQYHRLPLI | 1.68 / 1.90 / 1.24 / 1.47 / 1.52 / 1.79 | 1.60 | 1/18 (2.77) |